The target of the test is human PIEZO1-mTurquoise2 (human) (UniProt Q92508). In words: FRET or BRET; FRET by FLIM of the donor PIEZO1-mTurquoise2 with an acceptor-tagged partner coexpressed in COS-7 cells, fixed with 4% paraformaldehyde; two-photon excitation at 800 nm; peak lifetime of whole cells, cell-cell junctions or non-junctional regions; static dishes, or slides preconditioned 24 h at 10 dyn.cm^-2, 30 min static, then 10 min shear or static. On the technique in general: In BRET a luciferase serves as donor, and the signal depends on an acceptor being close.

“human PECAM1-SYFP2 (wild type), in COS-7 cells (from UniProt P16284 28-738) (natural protein; other documents disagree on this pair)” returned a fluorescence lifetime of the donor (PIEZO1-mTurquoise2) with the acceptor coexpressed of 3.5 ns.

These data come from paper PMC10067937.
